One test concerns the target T1, human GLP-1 receptor (Homo sapiens, UniProt P43220).
T1 construct: host or cells: CHO DG44
Briefly: cAMP response in CHO cell line expressing human GLP-1 receptor (CHO/GLP-1R). It is filed as cell-based. On the procedure:
The PCR product was cloned into the known animal cell expression vector x0GC/dhfr to prepare a recombinant vector x0GC/GLP1R.
CHO DG44 cell line cultured in DMEM/F12 (10% FBS) medium was transfected with the recombinant vector x0GC/GLP1R using LIPOFECTAMINE® (INVITROGEN®, USA), and cultured in a selection medium containing 1 mg/mL G418 and 10 nM methotraxate.
(§1) The cultured cells were washed with KRB buffer and suspended in 40 ml of KRB buffer containing 1 mM IBMX, and left at room temperature for 5 minutes. […] Then, 20 mL of cell lysis buffer was added for cell lysis, and the cell lysates were applied to a cAMP assay kit (Molecular Device, USA) to measure cAMP concentrations. EC50 values were calculated therefrom, and compared to each other.
(§2) Each of the cultured transformants was washed with KRB buffer and suspended in 40 ml of KRB buffer containing 1 mM IBMX, and left at room temperature for 5 minutes. […] Then, 20 ml of cell lysis buffer was added for cell lysis, and the cell lysates were applied to a cAMP assay kit (Molecular Device, USA) to measure cAMP concentrations using a Victor (PERKIN ELMER®, USA). EC50 values were calculated therefrom, and compared to each other (Table 3).

Protein sequences, listed by entry. Tags and fused reporters are not part of them. Residues count along the entry.
UniProt P43220, 24-463: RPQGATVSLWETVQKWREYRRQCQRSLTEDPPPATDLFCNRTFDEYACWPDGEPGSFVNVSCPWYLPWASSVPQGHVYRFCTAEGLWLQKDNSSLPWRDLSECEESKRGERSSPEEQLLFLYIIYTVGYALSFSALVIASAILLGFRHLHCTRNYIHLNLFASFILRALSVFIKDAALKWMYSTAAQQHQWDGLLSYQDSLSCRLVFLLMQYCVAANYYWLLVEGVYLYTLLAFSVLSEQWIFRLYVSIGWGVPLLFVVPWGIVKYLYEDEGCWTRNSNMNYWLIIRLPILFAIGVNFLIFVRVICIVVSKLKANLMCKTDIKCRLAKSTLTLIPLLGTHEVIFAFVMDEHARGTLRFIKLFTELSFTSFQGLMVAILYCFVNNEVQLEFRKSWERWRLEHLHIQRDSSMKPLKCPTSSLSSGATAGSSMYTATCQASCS
UniProt P47871, 26-477: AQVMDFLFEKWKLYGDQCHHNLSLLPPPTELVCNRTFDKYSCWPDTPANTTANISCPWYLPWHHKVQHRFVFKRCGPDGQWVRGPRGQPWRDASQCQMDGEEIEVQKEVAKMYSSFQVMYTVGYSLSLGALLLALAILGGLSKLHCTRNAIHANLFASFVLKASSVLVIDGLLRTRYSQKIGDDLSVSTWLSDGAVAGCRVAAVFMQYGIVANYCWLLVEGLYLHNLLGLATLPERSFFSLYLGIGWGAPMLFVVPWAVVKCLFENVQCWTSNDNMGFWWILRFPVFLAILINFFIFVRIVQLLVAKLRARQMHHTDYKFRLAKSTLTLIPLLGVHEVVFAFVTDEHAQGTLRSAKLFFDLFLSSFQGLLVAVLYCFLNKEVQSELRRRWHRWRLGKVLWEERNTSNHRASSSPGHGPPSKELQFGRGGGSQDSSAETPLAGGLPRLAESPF

The next test has as its target T2, human glucagon receptor (Homo sapiens, UniProt P47871).
T2 construct: host or cells: CHO DG44
Briefly: cAMP response in CHO cell line expressing human glucagon receptor (CHO/GCGR). The class given is cell-based. The method, then:
The PCR product was cloned into the known animal cell expression vector x0GC/dhfr to prepare a recombinant vector x0GC/GCGR.
CHO DG44 cell line cultured in DMEM/F12 (10% FBS) medium was transfected with the recombinant vector x0GC/GCGR using LIPOFECTAMINE®, and cultured in a selection medium containing 1 mg/mL G418 and 10 nM methotraxate.
as §1, §2

Test [1] is described as follows: Changes in food intake in ob/ob mouse. It is filed as in vivo. To be noted: ob/ob mice fasted for 16 hours; 1 mg/kg; food intake for 2 hours (FIG. 1). The method, then: In order to measure in vivo therapeutic activity of oxyntomodulin derivatives, changes in food intake by administration of oxyntomodulin derivatives were examined in ob/ob mouse using native oxyntomodulin as a control.
Specifically, obese diabetic ob/ob mice, commonly used to test the efficacies of therapeutic agents for obesity and diabetes, were fasted for 16 hours, and administered with 1 or 10 mg/kg of oxyntomodulin, or 0.02, 0.1, 1 or 10 mg/kg of the oxyntomodulin derivative of SEQ ID NO. 2. Then, food intake was examined for 2 hours (FIG. 1). FIG. 1 is a graph showing changes in food intake according to administration dose of oxyntomodulin or oxyntomodulin derivative.

The term EC50 denotes the concentration at which the effect is half-maximal. A lower EC50 goes with an effect from little substance. Turning to `CSCC[C@H](NC(=O)[C@H](CC(C)C)NC(=O)[C@H](Cc1c[nH]c2ccccc12)NC(=O)[C@H](CCC(N)=O)NC(=O)[C@@H](NC(=O)[C@H](Cc1ccccc1)NC(=O)[C@H](CCC(=O)O)NC(=O)[C@@H]1CCCCNC(=O)CC[C@H](NC(=O)[C@H](CC(=O)O)NC(=O)[C@H](CC(C)C)NC(=O)[C@H](Cc2ccc(O)cc2)NC(=O)[C@H](CCCCN)NC(=O)[C@H](CO)NC(=O)[C@H](Cc2ccc(O)cc2)NC(=O)[C@H](CC(=O)O)NC(=O)[C@H](CO)NC(=O)[C@@H](NC(=O)[C@H](Cc2ccccc2)NC(=O)[C@@H](NC(=O)CNC(=O)[C@H](CCC(N)=O)NC(=O)C(C)(C)NC(=O)Cc2c[nH]cn2)[C@@H](C)O)[C@@H](C)O)C(=O)N[C@@H](CCCCN)C(=O)N[C@@H](CCCNC(=N)N)C(=O)N[C@@H](C)C(=O)N1)C(C)C)C(=O)N[C@@H](CC(N)=O)C(=O)N[C@H](C(=O)N[C@@H](CS)C(=O)O)[C@@H](C)O` [SEQ ID NO. 32], the EC50 is 14.2 nM on human GLP-1 receptor and 17.3 nM on human glucagon receptor.

In the case of `CC[C@H](C)[C@H](NC(=O)[C@H](CC(N)=O)NC(=O)[C@H](CC(N)=O)NC(=O)[C@H](CCCNC(=N)N)NC(=O)[C@H](CC(N)=O)NC(=O)[C@H](CCCNC(=N)N)NC(=O)[C@H](CCCCN)NC(=O)[C@@H](NC(=O)[C@H](CC(N)=O)NC(=O)[C@H](CCSC)NC(=O)[C@H](CC(C)C)NC(=O)[C@H](Cc1c[nH]c2ccccc12)NC(=O)[C@H](CCC(=O)O)NC(=O)[C@@H](NC(=O)[C@H](Cc1ccccc1)NC(=O)[C@H](CC(C)C)NC(=O)[C@H](CCCNC(=N)N)NC(=O)[C@@H](NC(=O)[C@H](C)NC(=O)[C@H](CCC(=O)O)NC(=O)[C@H](CCC(=O)O)NC(=O)[C@H](CC(=O)O)NC(=O)[C@H](CC(C)C)NC(=O)[C@H](Cc1ccc(O)cc1)NC(=O)[C@H](CCCCN)NC(=O)[C@H](CO)NC(=O)[C@H](Cc1ccc(O)cc1)NC(=O)[C@H](CC(=O)O)NC(=O)[C@H](CO)NC(=O)[C@@H](NC(=O)[C@H](Cc1ccccc1)NC(=O)[C@@H](NC(=O)CNC(=O)[C@H](CCC(N)=O)NC(=O)[C@H](CO)NC(=O)Cc1c[nH]cn1)[C@@H](C)O)[C@@H](C)O)C(C)C)[C@@H](C)CC)[C@@H](C)O)C(=O)N[C@@H](C)C(=O)O` [SEQ ID NO. 2], the “inhibitory effects on food intake” value in test [1] is given as “more excellent inhibitory effects on food intake than administration of 10 mg/kg of oxyntomodulin”.

The values are drawn from patent US10363320B2, “Conjugate comprising oxyntomodulin and an immunoglobulin fragment, and use thereof” (HANMI SCIENCE CO., LTD, priority 2011, dated 2019).
